Assay results: patent US20250376517A1 (AKESO BIOPHARMA, published 2025)

Target: T1, human Claudin18.2 (CLDN18.2) on the surface of CHO-K1-CLDN18.2 cells (human, UniProt P56856-2 1-261)
T1 construct: whole, on cells; Membrane protein overexpressed on CHO-K1 cells; also called hCLDN18.2; antigen on the surface of CHO-K1-CLDN18.2 cell
Experiment: cell ELISA on CHO-K1-CLDN18.2 cells
Protocol: CHO-K1-CLDN18.2 cells (Chinese hamster ovary cells CHO-K1 overexpressing CLDN18.2, CHO-K1 purchased from Cell Resource Center, Institute of Basic Medical Sciences, Chinese Academy of Medical Sciences, Cat. No.: 3111C0001CCC000004) were plated on a cell plate (Corning, 3599) at 2×10⁴ cells/well and cultured overnight at 5% CO₂ and 37° C., and then the cell plate in which the cells were incubated was washed once with PBST and blocked for 2 h at 37° C. using PBST containing 1% BSA as a blocking solution. After blocking, the plate was washed 3 times with PBST. The ELISA plate containing the test antibodies was incubated at 37° C. for 30 min and then washed 3 times with PBST. […] Then, the plate was incubated at 37° C. for 30 min. After incubation, the plate was washed 4 times with PBST, TMB (Neogen, 308177) was added for color developing in the dark for 5 min, and then a stop solution was added to terminate the chromogenic reaction. The ELISA plate was put into a microplate reader immediately, and the OD value of each well in the ELISA plate was read at 450 nm. The data were analyzed and processed by SoftMax Pro 6.2.1.

B1: humanized anti-human CLDN18.2 antibody 8C5.1H3L3 (antibody, human IgG1, kappa, V domains shown)
VH: EVQLVESGGGLVKPGGSLRLSCAASGFTFSNSAVSWVRQAPGKGLEWVSSITSGVSYTYYADSVKGRFTISRDNAKNSLYLQMNSLRAEDTAVYYCTRQFKGNALDYWGQGTSVTVSS
VL: DIVMTQSPSSLSVSPGERVTISCKSSQSLLNSGNQKNYLAWYQQKPGQPPKLLIYWASTRESGVPDRFSGSGSGTDFTLTISSLQAEDVAVYYCQNDYFYPLTFGAGTKLELKR
  EC50: 0.11 nM
